Laboratory results as given in ChEMBL document CHEMBL1135438, “Synthesis and pharmacological characterization of novel analogues of the nicotinic acetylcholine receptor agonist (+/-)-UB-165” (J Med Chem, 2002).

By UniProt entry, the sequences of proteins in these tests, tags left out. Residues count along the entry.
UniProt Q05941, 23-502 limits assumed: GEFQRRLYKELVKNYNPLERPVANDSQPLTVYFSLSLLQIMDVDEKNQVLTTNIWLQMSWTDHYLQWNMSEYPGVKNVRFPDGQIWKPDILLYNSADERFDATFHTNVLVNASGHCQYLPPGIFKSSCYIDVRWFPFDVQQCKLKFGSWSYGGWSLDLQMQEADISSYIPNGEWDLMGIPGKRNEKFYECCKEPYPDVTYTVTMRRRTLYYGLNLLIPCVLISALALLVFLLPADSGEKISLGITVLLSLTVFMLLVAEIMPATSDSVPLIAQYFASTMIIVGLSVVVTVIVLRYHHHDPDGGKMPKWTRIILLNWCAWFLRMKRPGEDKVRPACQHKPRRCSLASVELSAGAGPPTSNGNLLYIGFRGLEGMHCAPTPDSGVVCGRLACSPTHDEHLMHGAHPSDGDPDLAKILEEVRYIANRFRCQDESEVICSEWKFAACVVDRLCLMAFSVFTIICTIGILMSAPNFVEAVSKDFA
UniProt P04757, 26-499 limits assumed: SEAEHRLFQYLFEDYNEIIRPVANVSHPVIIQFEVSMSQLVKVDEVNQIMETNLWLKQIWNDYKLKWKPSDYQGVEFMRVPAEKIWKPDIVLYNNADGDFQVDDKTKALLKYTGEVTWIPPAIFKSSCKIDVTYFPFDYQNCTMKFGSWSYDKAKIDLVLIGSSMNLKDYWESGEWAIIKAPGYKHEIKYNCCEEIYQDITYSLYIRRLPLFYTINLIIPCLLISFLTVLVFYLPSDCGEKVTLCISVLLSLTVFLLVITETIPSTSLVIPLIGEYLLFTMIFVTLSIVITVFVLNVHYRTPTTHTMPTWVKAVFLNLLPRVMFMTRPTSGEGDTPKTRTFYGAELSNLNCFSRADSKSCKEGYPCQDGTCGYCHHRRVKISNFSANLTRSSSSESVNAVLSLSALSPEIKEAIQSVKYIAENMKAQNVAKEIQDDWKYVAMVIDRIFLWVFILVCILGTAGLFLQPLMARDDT
UniProt P12392, 21-495 limits assumed: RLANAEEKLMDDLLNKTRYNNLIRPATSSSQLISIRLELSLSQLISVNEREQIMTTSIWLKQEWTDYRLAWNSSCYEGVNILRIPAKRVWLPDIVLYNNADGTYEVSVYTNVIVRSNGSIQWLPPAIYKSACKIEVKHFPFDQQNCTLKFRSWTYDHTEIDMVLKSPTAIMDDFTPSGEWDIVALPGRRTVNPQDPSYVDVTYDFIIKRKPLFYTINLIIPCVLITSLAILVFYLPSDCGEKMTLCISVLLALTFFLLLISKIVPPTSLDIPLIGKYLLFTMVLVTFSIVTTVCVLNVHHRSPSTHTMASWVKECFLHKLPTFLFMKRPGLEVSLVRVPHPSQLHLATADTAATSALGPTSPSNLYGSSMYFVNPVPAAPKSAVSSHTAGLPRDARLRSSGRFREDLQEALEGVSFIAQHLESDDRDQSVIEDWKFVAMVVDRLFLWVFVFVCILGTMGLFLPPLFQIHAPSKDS

What was measured:
[1] = molecular target: Neuronal acetylcholine receptor subunit alpha-7 (Rattus norvegicus, UniProt Q05941); assay: Binding affinity at rat brain Nicotinic acetylcholine receptor alpha7
[2] = molecular target: T1, Neuronal acetylcholine receptor; alpha3/beta4 (Rattus norvegicus, UniProt P04757+P12392); assay: Activation potency at Nicotinic acetylcholine receptor alpha3beta4, expressed as concentration required to achieve a half maximal activation
[3] = molecular target: T1, Neuronal acetylcholine receptor; alpha3/beta4; assay: Binding affinity at rat brain Nicotinic acetylcholine receptor alpha3-beta4

CC(=O)C1=CCCC2CCC1N2 (stereo not drawn)
Ki [1]: 1140 nM
EC50 [2]: 2290 nM
Ki [3]: 25.4 nM
